This is an account of results in patent US9302989B2 (priority 2010, dated 2016).

The chains behind the UniProt entries cited, without tags or fusion partners. Where a name states a change or a piece, a line headed by the entry shows the natural chain unless it says otherwise.
UniProt P43490: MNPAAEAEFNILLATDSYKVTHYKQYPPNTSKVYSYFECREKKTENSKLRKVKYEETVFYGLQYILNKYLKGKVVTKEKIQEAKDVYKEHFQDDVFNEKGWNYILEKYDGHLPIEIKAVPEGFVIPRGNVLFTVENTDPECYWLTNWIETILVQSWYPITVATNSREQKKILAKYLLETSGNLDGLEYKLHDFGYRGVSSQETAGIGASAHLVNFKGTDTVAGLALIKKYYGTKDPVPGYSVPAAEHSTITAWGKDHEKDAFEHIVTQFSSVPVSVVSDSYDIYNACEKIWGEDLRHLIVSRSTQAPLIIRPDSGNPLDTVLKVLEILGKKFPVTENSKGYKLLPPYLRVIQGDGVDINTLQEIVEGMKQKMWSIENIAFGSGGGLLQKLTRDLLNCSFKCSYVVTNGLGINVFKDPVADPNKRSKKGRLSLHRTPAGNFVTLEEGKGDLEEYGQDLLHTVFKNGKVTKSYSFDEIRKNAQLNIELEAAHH

Each structure is given as a SMILES string.

The assay addresses NAMPT (Homo sapiens (Human), UniProt P43490). Particulars: read-out: TR-FRET Binding IC50 (μM) probe 1. For orientation: TR-FRET usually uses a lanthanide donor and a delayed reading to cut background.
A word on the IC50: it is the concentration at which inhibition is half-maximal. For the molecule `O=C(NCC1CCOC1)c1ccc(NC(=O)N2Cc3cccnc3C2)cc1` (stereo not shown) [Example 447, N-(4-{[(tetrahydrofuran-3-ylmethyl)amino]carbonyl}phenyl)-5,7-dihydro-6H-pyrrolo[3,4-b]pyridine-6-carboxamide], the IC50 was determined as 0.0466 µM.

Take `O=C(Nc1ccc(-c2c[nH]c(=O)c3ccccc23)cc1)N1Cc2ccc(CN3CCCC3)cc2C1` [Example 387, N-[4-(1-oxo-1,2-dihydroisoquinolin-4-yl)phenyl]-5-(pyrrolidin-1-ylmethyl)-1,3-dihydro-2H-isoindole-2-carboxamide]: the IC50 is 0.17 µM. In the case of `O=C(NCc1ccc(F)cc1)c1ccc(NC(=O)N2Cc3ccccc3C2)cc1` [Example 28, N-{4-[(4-fluorobenzyl)carbamoyl]phenyl}-1,3-dihydro-2H-isoindole-2-carboxamide], the IC50 was determined as 0.0141 µM. The result for `O=C(Nc1ccc(N2CCN(C(=O)c3cccnc3)CC2)cc1)N1Cc2ccccc2C1` [Example 530, N-{4-[4-(pyridin-3-ylcarbonyl)piperazin-1-yl]phenyl}-1,3-dihydro-2H-isoindole-2-carboxamide] reads 0.124 µM; that for `CCCNC(=O)c1ccc(NC(=O)N2Cc3ccc(N)cc3C2)cc1` [Example 274, 5-amino-N-[4-(propylcarbamoyl)phenyl]-1,3-dihydro-2H-isoindole-2-carboxamide], 1.03 µM; that for `CCOCCCNC(=O)c1ccc(NC(=O)N2Cc3ccccc3C2)cc1` [Example 88, N-{4-[(3-ethoxypropyl)carbamoyl]phenyl}-1,3-dihydro-2H-isoindole-2-carboxamide], 0.033 µM. With `O=C(CC1CCCC1)Nc1ccc(NC(=O)N2Cc3ccccc3C2)cc1` [Example 311, N-{4-[(cyclopentylacetyl)amino]phenyl}-1,3-dihydro-2H-isoindole-2-carboxamide], the IC50 amounted to 0.00524 µM. Regarding `O=C(Nc1ccc(C2CCNCC2)cc1)N1Cc2ccccc2C1` [Example 403, N-[4-(piperidin-4-yl)phenyl]-1,3-dihydro-2H-isoindole-2-carboxamide], the IC50 amounted to 0.606 µM. The result for `O=C(Nc1ccc(C(=O)N2CCN(c3ncccn3)CC2)cc1)N1Cc2ccc(C(F)(F)F)cc2C1` [Example 47, N-(4-{[4-(pyrimidin-2-yl)piperazin-1-yl]carbonyl}phenyl)-5-(trifluoromethyl)-1,3-dihydro-2H-isoindole-2-carboxamide] reads 0.0185 µM.

Consider `COc1ccc(CC(=O)N2CCN(c3ccc(NC(=O)N4Cc5ccccc5C4)cc3)CC2)cc1OC` [Example 524, N-(4-{4-[(3,4-dimethoxyphenyl)acetyl]piperazin-1-yl}phenyl)-1,3-dihydro-2H-isoindole-2-carboxamide], for which the IC50 is 0.115 µM. On to `O=C(Nc1ccc(C(=O)N2CCc3c([nH]c4ccccc34)C2)cc1)N1Cc2ccccc2C1` [Example 214, N-[4-(1,3,4,9-tetrahydro-2H-beta-carbolin-2-ylcarbonyl)phenyl]-1,3-dihydro-2H-isoindole-2-carboxamide], for which the IC50 was determined as 0.265 µM. On to `CCCNC(=O)c1ccc(NC(=O)N2Cc3ccc(CO)cc3C2)cc1` [Example 275, 5-(hydroxymethyl)-N-[4-(propylcarbamoyl)phenyl]-1,3-dihydro-2H-isoindole-2-carboxamide], for which the IC50 was found to be 0.197 µM. On to `COc1cc(CCNC(=O)c2ccc(NC(=O)N3Cc4ccccc4C3)cc2)cc(OC)c1` [Example 168, N-(4-{[2-(3,5-dimethoxyphenyl)ethyl]carbamoyl}phenyl)-1,3-dihydro-2H-isoindole-2-carboxamide], for which the IC50 came out at 0.105 µM. For `O=C(Nc1ccc(C(=O)N2CCSCC2)cc1)N1Cc2ccccc2C1` [Example 161, N-[4-(thiomorpholin-4-ylcarbonyl)phenyl]-1,3-dihydro-2H-isoindole-2-carboxamide], the IC50 turned out to be 0.0876 µM. The result for `CC(C)CCNC(=O)CCCCCNC(=O)N1Cc2ccccc2C1` [Example 362, N-{6-[(3-methylbutyl)amino]-6-oxohexyl}-1,3-dihydro-2H-isoindole-2-carboxamide] reads 0.578 µM; that for `COc1cccc(NC(=O)c2ccc(NC(=O)N3Cc4ccccc4C3)cc2)c1` [Example 166, N-{4-[(3-methoxyphenyl)carbamoyl]phenyl}-1,3-dihydro-2H-isoindole-2-carboxamide], 0.0999 µM; that for `N#Cc1ccccc1N1CCN(C(=O)c2ccc(NC(=O)N3Cc4ccccc4C3)cc2)CC1` [Example 84, N-(4-{[4-(2-cyanophenyl)piperazin-1-yl]carbonyl}phenyl)-1,3-dihydro-2H-isoindole-2-carboxamide], 0.0308 µM.

As to `O=C(Nc1ccc(C(=O)N2CCC3(CC2)OCCO3)cc1)N1Cc2ccccc2C1` [Example 138, N-[4-(1,4-dioxa-8-azaspiro[4.5]dec-8-ylcarbonyl)phenyl]-1,3-dihydro-2H-isoindole-2-carboxamide], the IC50 came out at 0.0632 µM. Take `CC(C)CCNC(=O)c1ccc(NC(=O)N2Cc3cncnc3C2)cc1` [Example 430, N-(4-{[(3-methylbutyl)amino]carbonyl}phenyl)-5,7-dihydro-6H-pyrrolo[3,4-d]pyrimidine-6-carboxamide]: the IC50 came to 0.191 µM. The value for `CCOCC(=O)Nc1ccc(NC(=O)N2Cc3ccccc3C2)cc1` [Example 308, N-{4-[(ethoxyacetyl)amino]phenyl}-1,3-dihydro-2H-isoindole-2-carboxamide] was 0.0808 µM. The result for `CC1CN(C(=O)c2ccc(NC(=O)N3Cc4ccccc4C3)cc2)CC(C)O1` (stereo not shown) [Example 257, N-{4-[(2,6-dimethylmorpholin-4-yl)carbonyl]phenyl}-1,3-dihydro-2H-isoindole-2-carboxamide] reads 1.36 µM; that for `CCOC(=O)CCCCCNC(=O)N1Cc2ccccc2C1` [Example 355, ethyl 6-[(1,3-dihydro-2H-isoindol-2-ylcarbonyl)amino]hexanoate], 0.124 µM; that for `O=C(Nc1ccc(C(=O)N(CCO)Cc2ccccc2)cc1)N1Cc2ccccc2C1` [Example 175, N-{4-[benzyl(2-hydroxyethyl)carbamoyl]phenyl}-1,3-dihydro-2H-isoindole-2-carboxamide], 0.12 µM. The value for `O=C(NCc1ccccc1)c1ccc(NC(=O)N2Cc3ccc(F)cc3C2)cc1` [Example 9, N-[4-(benzylcarbamoyl)phenyl]-5-fluoro-1,3-dihydro-2H-isoindole-2-carboxamide] was 0.00502 µM; that for `COCCN1CCN(C(=O)c2ccc(NC(=O)N3Cc4ccccc4C3)cc2)CC1` [Example 438, N-(4-{[4-(2-methoxyethyl)piperazin-1-yl]carbonyl}phenyl)-1,3-dihydro-2H-isoindole-2-carboxamide] was 0.6 µM. In the case of `CC(C)CN1CC=C(c2ccc(NC(=O)N3Cc4ccccc4C3)cc2)CC1` [Example 429, N-[4-(1-isobutyl-1,2,3,6-tetrahydropyridin-4-yl)phenyl]-1,3-dihydro-2H-isoindole-2-carboxamide], the IC50 stood at 0.179 µM. For `O=C(NCCc1ccc(O)cc1)c1ccc(NC(=O)N2Cc3ccccc3C2)cc1` [Example 134, N-(4-{[2-(4-hydroxyphenyl)ethyl]carbamoyl}phenyl)-1,3-dihydro-2H-isoindole-2-carboxamide], the IC50 worked out at 0.0613 µM. In the case of `CC(C)(C)OC(=O)N1CCC(c2ccc(NC(=O)N3Cc4ccccc4C3)cc2)CC1` [Example 401, tert-butyl 4-{4-[(1,3-dihydro-2H-isoindol-2-ylcarbonyl)amino]phenyl}piperidine-1-carboxylate], the IC50 was found to be 0.072 µM.
